Literature values as cited in publication PMC5672791 (Journal of medicinal chemistry, 2015).

Experiments:
[1] = system: mMC4R mutations (E92K, F253S); details: cited from earlier work
MC3R and/or MC4R = details: fasted mice; cited from earlier work

Ac-Nle-c[Asp-His-DNal(2′)-Arg-Trp-Lys]-NH2 [SHU9119]
binding to mMC4R mutations E92K, F253S [1]: minimal effects
feeding after i.c.v. injection (MC3R and/or MC4R): significant increased feeding
